The record followed here is ChEMBL document CHEMBL6109139, “Rational Design of the First Dual Agonist at Trace Amine-Associated Receptor 1 and 5-HT2C Receptors Based on Binding Pocket Similarity for the Treatment of Schizophrenia and Alzheimer's Disease-Related Psychosis” (J Med Chem, 2025).

Protein sequences, listed by entry. Tags and fused reporters are not part of them. Lines headed by an entry give the natural chain unless they say otherwise; changes in a name come on top.
UniProt P28335: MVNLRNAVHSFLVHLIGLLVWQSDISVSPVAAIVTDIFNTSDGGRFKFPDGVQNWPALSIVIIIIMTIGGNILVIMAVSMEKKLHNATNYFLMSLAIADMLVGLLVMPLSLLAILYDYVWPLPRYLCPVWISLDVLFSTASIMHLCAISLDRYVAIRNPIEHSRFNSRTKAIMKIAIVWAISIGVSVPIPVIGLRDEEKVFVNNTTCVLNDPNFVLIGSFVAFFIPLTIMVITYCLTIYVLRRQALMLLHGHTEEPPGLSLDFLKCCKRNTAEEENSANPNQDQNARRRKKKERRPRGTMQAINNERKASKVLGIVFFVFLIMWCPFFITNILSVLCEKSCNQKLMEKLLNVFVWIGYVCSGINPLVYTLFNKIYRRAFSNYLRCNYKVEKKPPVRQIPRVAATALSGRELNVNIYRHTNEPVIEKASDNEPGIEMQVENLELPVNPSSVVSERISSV
UniProt P08908, whole entry: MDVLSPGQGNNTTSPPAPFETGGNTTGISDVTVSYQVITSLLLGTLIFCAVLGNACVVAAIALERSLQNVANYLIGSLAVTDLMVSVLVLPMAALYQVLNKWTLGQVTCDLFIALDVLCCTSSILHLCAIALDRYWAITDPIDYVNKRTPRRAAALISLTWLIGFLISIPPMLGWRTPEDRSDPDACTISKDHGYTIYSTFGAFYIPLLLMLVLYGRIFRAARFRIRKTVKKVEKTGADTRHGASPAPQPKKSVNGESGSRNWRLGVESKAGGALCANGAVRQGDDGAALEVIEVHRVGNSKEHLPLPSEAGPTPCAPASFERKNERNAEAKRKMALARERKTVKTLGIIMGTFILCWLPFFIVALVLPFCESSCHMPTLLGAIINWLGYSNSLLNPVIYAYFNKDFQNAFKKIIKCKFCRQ
UniProt P20813: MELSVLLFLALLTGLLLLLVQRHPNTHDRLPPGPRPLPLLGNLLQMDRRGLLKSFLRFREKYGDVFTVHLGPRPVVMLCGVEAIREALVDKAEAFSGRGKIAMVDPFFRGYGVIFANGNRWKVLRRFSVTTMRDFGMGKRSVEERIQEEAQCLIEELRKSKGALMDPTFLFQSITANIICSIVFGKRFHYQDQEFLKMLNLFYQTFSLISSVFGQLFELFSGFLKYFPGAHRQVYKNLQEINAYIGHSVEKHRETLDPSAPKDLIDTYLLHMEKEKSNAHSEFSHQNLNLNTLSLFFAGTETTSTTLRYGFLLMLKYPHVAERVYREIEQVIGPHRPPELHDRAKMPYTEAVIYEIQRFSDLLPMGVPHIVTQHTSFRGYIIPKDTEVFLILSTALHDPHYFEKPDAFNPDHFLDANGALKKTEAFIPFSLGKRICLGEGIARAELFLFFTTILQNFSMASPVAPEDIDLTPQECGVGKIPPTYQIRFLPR
UniProt P10632, whole entry: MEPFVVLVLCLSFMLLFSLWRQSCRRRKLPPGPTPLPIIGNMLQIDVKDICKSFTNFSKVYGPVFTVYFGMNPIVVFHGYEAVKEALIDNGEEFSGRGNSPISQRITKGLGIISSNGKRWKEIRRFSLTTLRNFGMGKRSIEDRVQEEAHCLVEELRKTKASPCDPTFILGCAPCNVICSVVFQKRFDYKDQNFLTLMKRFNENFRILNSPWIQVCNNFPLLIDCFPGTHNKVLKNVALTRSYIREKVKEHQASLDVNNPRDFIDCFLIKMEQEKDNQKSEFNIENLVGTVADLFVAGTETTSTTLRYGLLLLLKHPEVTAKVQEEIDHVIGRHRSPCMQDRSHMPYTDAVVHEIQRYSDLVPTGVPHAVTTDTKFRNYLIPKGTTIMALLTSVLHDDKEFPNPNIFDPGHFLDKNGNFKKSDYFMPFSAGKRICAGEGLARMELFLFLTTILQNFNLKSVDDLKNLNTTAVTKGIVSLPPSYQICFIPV
UniProt P11712, whole entry: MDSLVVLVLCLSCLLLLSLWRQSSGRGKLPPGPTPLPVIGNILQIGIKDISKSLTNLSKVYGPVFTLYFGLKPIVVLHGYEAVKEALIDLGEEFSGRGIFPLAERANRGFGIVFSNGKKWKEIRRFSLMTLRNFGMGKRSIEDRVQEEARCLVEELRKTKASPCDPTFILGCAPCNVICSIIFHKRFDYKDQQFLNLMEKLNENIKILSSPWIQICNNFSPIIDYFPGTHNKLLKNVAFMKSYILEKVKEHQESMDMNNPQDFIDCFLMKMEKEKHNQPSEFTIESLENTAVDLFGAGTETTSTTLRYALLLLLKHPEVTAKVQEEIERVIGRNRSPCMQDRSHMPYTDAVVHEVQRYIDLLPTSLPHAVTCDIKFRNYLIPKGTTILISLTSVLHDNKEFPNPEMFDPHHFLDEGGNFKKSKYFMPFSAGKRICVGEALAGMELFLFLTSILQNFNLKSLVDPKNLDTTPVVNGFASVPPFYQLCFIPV
UniProt P33261, whole entry: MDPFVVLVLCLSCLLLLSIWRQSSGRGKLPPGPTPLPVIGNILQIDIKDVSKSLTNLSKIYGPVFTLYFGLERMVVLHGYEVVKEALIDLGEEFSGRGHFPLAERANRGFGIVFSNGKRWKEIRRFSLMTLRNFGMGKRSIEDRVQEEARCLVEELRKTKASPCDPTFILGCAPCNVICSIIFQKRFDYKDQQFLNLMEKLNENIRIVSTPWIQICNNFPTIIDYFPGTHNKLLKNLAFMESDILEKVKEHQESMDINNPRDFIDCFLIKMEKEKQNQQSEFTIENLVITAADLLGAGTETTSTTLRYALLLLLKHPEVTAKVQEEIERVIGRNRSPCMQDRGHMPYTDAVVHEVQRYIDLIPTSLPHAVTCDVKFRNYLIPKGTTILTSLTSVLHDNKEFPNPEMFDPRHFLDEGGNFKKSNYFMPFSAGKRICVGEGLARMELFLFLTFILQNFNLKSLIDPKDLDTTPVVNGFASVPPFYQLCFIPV
UniProt P05177, whole entry: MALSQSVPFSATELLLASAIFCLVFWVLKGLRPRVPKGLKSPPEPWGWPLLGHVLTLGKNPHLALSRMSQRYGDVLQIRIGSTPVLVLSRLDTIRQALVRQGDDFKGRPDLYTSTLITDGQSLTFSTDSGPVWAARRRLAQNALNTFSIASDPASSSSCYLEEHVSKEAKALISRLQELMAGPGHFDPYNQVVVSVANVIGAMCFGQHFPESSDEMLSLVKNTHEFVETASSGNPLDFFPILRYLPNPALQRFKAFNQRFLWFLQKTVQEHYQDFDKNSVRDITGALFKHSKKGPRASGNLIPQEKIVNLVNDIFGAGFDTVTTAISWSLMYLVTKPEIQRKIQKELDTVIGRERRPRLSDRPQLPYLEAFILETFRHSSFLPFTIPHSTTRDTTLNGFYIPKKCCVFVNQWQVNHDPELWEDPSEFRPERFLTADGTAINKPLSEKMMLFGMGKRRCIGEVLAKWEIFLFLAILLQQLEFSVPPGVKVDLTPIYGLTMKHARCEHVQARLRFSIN
UniProt P34969, whole entry: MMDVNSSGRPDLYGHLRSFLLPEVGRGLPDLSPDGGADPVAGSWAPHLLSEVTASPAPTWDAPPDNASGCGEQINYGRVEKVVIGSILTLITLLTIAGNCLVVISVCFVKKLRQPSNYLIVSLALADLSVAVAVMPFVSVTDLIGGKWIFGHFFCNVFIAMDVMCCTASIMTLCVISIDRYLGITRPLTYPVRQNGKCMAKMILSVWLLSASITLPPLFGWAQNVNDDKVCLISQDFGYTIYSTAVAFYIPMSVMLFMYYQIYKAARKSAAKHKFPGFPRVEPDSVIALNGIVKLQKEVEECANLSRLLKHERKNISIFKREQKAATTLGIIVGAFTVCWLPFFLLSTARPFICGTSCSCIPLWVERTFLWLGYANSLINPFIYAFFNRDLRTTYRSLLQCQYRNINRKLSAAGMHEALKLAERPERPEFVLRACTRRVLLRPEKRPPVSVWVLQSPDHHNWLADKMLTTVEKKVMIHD
UniProt P08684, whole entry: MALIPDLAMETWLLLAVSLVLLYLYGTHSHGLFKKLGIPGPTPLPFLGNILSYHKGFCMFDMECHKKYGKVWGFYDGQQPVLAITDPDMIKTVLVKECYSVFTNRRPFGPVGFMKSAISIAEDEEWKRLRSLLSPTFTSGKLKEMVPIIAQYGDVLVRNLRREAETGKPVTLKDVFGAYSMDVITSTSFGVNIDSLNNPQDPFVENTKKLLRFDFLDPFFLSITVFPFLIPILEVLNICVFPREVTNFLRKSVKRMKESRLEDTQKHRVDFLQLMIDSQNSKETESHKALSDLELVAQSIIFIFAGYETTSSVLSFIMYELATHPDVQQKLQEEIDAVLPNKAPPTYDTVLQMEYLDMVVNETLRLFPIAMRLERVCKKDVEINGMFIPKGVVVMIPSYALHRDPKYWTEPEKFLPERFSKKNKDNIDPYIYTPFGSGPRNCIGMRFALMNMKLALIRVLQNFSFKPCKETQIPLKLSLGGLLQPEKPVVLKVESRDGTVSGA

Active and inactive are the calls of the source. The rule behind the calls is not given here.

For data set [1], the target named is T1, Trace amine-associated receptor 1 (Homo sapiens) (UniProt Q96RJ0).
T1 sequence (whole entry): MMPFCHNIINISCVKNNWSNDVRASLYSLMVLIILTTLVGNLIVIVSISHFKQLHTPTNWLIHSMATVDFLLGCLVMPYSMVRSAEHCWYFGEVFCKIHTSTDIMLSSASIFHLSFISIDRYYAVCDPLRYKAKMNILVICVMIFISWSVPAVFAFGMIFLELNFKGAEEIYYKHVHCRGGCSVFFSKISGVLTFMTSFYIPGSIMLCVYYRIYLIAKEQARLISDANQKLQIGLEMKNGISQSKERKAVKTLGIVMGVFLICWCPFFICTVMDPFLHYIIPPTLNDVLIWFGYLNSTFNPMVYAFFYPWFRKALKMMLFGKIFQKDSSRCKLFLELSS
The experiment in a line: Agonist activity at human TAAR1 extracted from CHO-K1 cell membrane coexpressing AGTRL1/Gi by measuring maximum efficacy at 0 to 100 uM by cAMP assay relative to control. Particulars: filed as agonist, dose 0-100 µM. It counts as functional, cell membranes. On the technique in general: Cyclic AMP is a second messenger, typically raised through Gs and lowered through Gi signalling.

Data set [2] addresses T2, Trace amine-associated receptor 1 (Homo sapiens, UniProt Q96RJ0).
T2 sequence (Q96RJ0 whole entry): T1 sequence (whole entry)
Description: Agonist activity at human TAAR1 extracted from CHO-K1 cell membrane coexpressing AGTRL1/Gi by cAMP assay. It counts as functional, cell membranes.

Data set [3] can be described thus: Plasma protein binding in dog assessed as unbound fraction by LC-MS/MS analysis. It counts as ADME, cell-free, Canis lupus familiaris.
The nature of data set [4]: Metabolic stability in mouse liver microsomes assessed as intrinsic clearance at 1 uM incubated for 60 mins by LC-MS/MS analysis. It counts as ADME, Microsome. Particulars: read-out: CLH.
Data set [5] concerns the target T3, 5-hydroxytryptamine receptor 2C (Homo sapiens, UniProt P28335). The experiment in a line: Agonist activity at recombinant human 5-HT2CR expressed in HEK293 cells incubated for 2 hrs by FLIPR calcium assay. It counts as functional, cell-based.
Data set [6] concerns the target T4, 5-hydroxytryptamine receptor 1A (Homo sapiens, UniProt P08908). Description: Agonist activity at human 5-HT1A expressed in CHO cells coexpressing Galpha15 by FLIPR calcium assay. It counts as functional, cell-based.
For the next data set, the target named is Cytochrome P450 2B6 (Homo sapiens, UniProt P20813). The experiment in a line: Inhibition of CYP2B6 in human liver microsomes in presence of NADPH by LC-MS/MS analysis. It counts as ADME, Microsome. A general note: Liver microsomes are vesicles of endoplasmic reticulum, rich in cytochrome P450 enzymes.
The target in another data set is Cytochrome P450 2C8 (Homo sapiens, UniProt P10632). The experiment in a line: Inhibition of CYP2C8 in human liver microsomes in presence of NADPH by LC-MS/MS analysis. It counts as ADME, Microsome.
Data set [7] can be described thus: Inhibition of CYP2D6 in human liver microsomes in presence of NADPH by LC-MS/MS analysis. It counts as ADME, Microsome.
For data set [8], the species on record is Mus musculus. Description: Antipsychotic activity against MK-801 induced hyperlocomotion in male C57BL/6J mouse model assessed as effective dose. It counts as functional.
Data set [9] has as its target T3, 5-hydroxytryptamine receptor 2C. The experiment in a line: Agonist activity at recombinant human 5-HT2CR expressed in HEK293 cells incubated for 2 hrs by measuring maximum efficacy by FLIPR calcium assay relative to control. It counts as functional, cell-based.
The nature of data set [10]: Plasma protein binding in rat assessed as unbound fraction by LC-MS/MS analysis. It counts as ADME, cell-free.
Data set [11] in a line: Metabolic stability in rat liver microsomes assessed as intrinsic clearance at 1 uM incubated for 60 mins by LC-MS/MS analysis. It counts as ADME, Microsome. Particulars: read-out: CLH.
A further data set has as its target Cytochrome P450 2C9 (Homo sapiens, UniProt P11712). The experiment in a line: Inhibition of CYP2C9 in human liver microsomes in presence of NADPH by LC-MS/MS analysis. It counts as ADME, Microsome.
In a further data set the target is Cytochrome P450 2C19 (Homo sapiens, UniProt P33261). The experiment in a line: Inhibition of CYP2C19 in human liver microsomes in presence of NADPH by LC-MS/MS analysis. It counts as ADME, Microsome.
A short description of data set [12]: Metabolic stability in human liver microsomes assessed as intrinsic clearance at 1 uM incubated for 60 mins by LC-MS/MS analysis. It counts as ADME, Microsome. Particulars: read-out: CLH.
The nature of data set [13]: Plasma protein binding in human assessed as unbound fraction by LC-MS/MS analysis. It counts as ADME, cell-free.
A further data set has as its target Cytochrome P450 1A2 (Homo sapiens, UniProt P05177). Description: Inhibition of CYP1A2 in human liver microsomes in presence of NADPH by LC-MS/MS analysis. It counts as ADME, Microsome.
Data set [14] deals with Mus musculus. The experiment in a line: Antipsychotic activity against DOI-induced head-twitch response in mouse assessed as reduction in head-twitch response at 10 mg/kg, IG measured for 30 mins. It counts as functional, organism-based.
In data set [15] the target is T5, 5-hydroxytryptamine receptor 7 (Homo sapiens, UniProt P34969). Description: Agonist activity at recombinant human 5-HT7 expressed in HEK293 cells by FLIPR calcium assay. It counts as functional, cell-based.
The target of data set [16] is T5, 5-hydroxytryptamine receptor 7. The experiment in a line: Agonist activity at recombinant human 5-HT7 expressed in HEK293 cells by measuring maximum efficacy at 2 uM by FLIPR calcium assay relative to control. It counts as functional, cell-based. As to conditions: filed as agonist.
The target in data set [17] is T4, 5-hydroxytryptamine receptor 1A. Description: Agonist activity at human 5-HT1A expressed in CHO cells coexpressing Galpha15 by measuring maximum efficacy at 2 uM by FLIPR calcium assay relative to control. It counts as functional, cell-based.
The target of the next data set is Cytochrome P450 3A4 (Homo sapiens, UniProt P08684). The experiment in a line: Inhibition of CYP3A4 in human liver microsomes in presence of NADPH by LC-MS/MS analysis. It counts as ADME, Microsome.
Data set [18] is described as follows: Apparent permeability across apical to basolateral side in human Caco-2 cells at 2 uM by LC-MS/MS analysis. It counts as ADME, cell-based. A general note: Passage across Caco-2 layers is used to estimate intestinal permeability.
Data set [19] is described as follows: AUClast in male mouse at 10 mg/kg, IG measured after 24 hrs. It counts as ADME, organism-based. As to conditions: in vivo, po.

By Emax is commonly meant the greatest response seen or fitted, relative to the assay's reference. In turn, `c1cc2c(s1)[C@@H]1CNCCN1CC2` showed an Emax in data set [1] of 95.2%.

With `c1cc2c(s1)[C@H]1CNCCN1CC2`, in [1], the Emax was 45.2%.

The term EC50 denotes the concentration at which the effect is half-maximal. Consider `CCc1[nH]nc(C(=O)Nc2ccc([C@H]3CNCCO3)cc2)c1C` [RALMITARONT], for which, in data set [2], the EC50 is 0.395 µM.

The fraction unbound is free concentration divided by total concentration. A word on the ED50: it is the dose at which the effect has come halfway, by size or by number of responders. The term Papp A→B denotes how fast a substance crosses the layer from the apical side. Usually AUC(0-t) stands for exposure summed from dosing to a finite time, without extrapolation to infinity. Read a low AUC(0-t) as less exposure. With `CNC[C@@H]1OCCc2ccsc21` [ULOTARONT], the fraction unbound was found to be 0.833 in data set [3], 0.857 in data set [10] and 0.827 in data set [13]. The CLint scaled at 1 µM in data set [4] is < 29.7 mL/min/kg; in data set [11], < 13.5 mL/min/kg; in data set [12] it was < 6.8 mL/min/kg. The Emax in data set [1] was determined as 87.4%; in [9], 30.5%; in [16] it was 54%; in [17], 25.9%. Besides, the EC50 was 298 µM in data set [5], 19 µM in data set [6], 0.349 µM in data set [2] and 0.59 µM in data set [15]. The IC50 entry (on Cytochrome P450 2B6; on Cytochrome P450 2C8; in data set [7]; on Cytochrome P450 2C9; at Cytochrome P450 2C19; on Cytochrome P450 1A2) was “Not_determined” each time. Moreover, the IC50 result on Cytochrome P450 3A4 is “Not_determined”. In addition, in the data set listed under Mus musculus [8], the ED50 came out at 3.8 mg/kg. The result in the data set on Mus musculus [14] was Active. Besides, the Papp A→B at 2 µM in data set [18] came to 30.1 ×10⁻⁶ cm/s. For the same molecule, the AUC(0-t) at 24 h in data set [19] was 17.1 µM·h.
